Seven compounds from ChEMBL document CHEMBL1125142, “Highly selective kappa-opioid analgesics. 3. Synthesis and structure-activity relationships of novel N-[2-(1-pyrrolidinyl)-4- or -5-substituted-cyclohexyl]arylacetamide derivatives” (1990) can be followed below.

Sequences of proteins named here, by UniProt entry; tags and fusion partners are left off. A change or cut given only in a name is not applied to a line headed by its entry.
UniProt P41144: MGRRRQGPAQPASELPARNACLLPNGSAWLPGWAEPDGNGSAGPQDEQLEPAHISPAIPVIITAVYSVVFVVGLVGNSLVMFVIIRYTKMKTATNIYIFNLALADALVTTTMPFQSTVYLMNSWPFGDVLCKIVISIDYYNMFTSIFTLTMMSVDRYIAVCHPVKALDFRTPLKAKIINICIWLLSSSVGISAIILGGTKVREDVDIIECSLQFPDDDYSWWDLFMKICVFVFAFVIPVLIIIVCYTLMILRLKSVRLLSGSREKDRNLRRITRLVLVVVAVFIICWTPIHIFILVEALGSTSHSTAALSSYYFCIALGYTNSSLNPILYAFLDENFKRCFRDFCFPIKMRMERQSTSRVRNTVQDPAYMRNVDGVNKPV

The structures appear in SMILES notation.

A short description of test [1]: Binding affinity against Opioid receptor mu 1.
For test [2], the target named is Kappa-type opioid receptor (Cavia porcellus, UniProt P41144). Kind of test: Binding affinity against Opioid receptor kappa 1.
The next test concerns Rattus norvegicus. Kind of test: Dose required to produce 50 percent of maximum possible analgesic effect (MPE) was evaluated by rat paw pressure test (iv).

For the compound `CN(C(=O)Cc1cccc2occc12)[C@@H]1CC[C@]2(CCCO2)C[C@H]1N1CCCC1`, the Ki in test [1] is 1260 nM; in test [2] it was 0.83 nM.

Turning to `CN(C(=O)Cc1ccc(Cl)c(Cl)c1)C1CCC2(CCCO2)CC1N1CCCC1` (stereo not drawn), in the test with Rattus norvegicus, the MPE50 amounted to 0.4 mg/kg.

The compound `CO[C@H]1CC(N(C)C(=O)Cc2cccc3sccc23)[C@@H](N2CCCC2)C[C@H]1OC` (stereo partly drawn) had a Ki in test [2] of 16 nM.

In the test with Rattus norvegicus, `CN1CC[C@]23c4c5ccc(O)c4O[C@H]2[C@@H](O)C=C[C@H]3[C@H]1C5.Cl` yielded an MPE50 of 0.6 mg/kg.

In the case of `CO[C@H]1CC(N(C)C(=O)Cc2cccc3sccc23)[C@@H](N2CCCC2)C[C@H]1OC.Cl` (stereo partly drawn), in the test on Rattus norvegicus, the MPE50 worked out at 0.8 mg/kg.

Turning to `CN(C(=O)Cc1cccc2sccc12)[C@H]1CCCC[C@@H]1N1CCCC1`, the affinity in test [2], expressed as Ki, was 3.7 nM.

Consider `CN(C(=O)Cc1cccc2occc12)[C@@H]1CC[C@]2(CCCO2)C[C@H]1N1CCCC1.Cl`, for which the MPE50 with Rattus norvegicus was 0.024 mg/kg.
